Source: PubChem BioAssay
ERp5 block: ERp5 (human) disulfide isomerase inhibition; Q15084; inhibition, % at 9.99 µM; actives 0.05% (n = 350,000); AID 651711; ERp5 insulin aggregation, absorbance 650 nm, 90 min;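 active means mean replicate inhibition above about 25%, with every replicate also reaching it, limit read from the data, passing the limit was not always enough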
PDI inh: inhibitors of human protein disulfide isomerase | inhibition, % at 10 µM | PDI insulin aggregation turbidity, A650, 90 min | AID 588391 | actives 0.052% (n = 350,000) | P07237;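 active means mean inhibition across replicates of 30% or more, whatever share of single replicates reach that level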
FGF22 binding: FGF22 (human) thermal shift binding. AID 651658. activity (Tm shift, normalised), % at 9.99 µM. actives 1.5% (n = 340,000). Q9HCT0. recombinant FGF22 thermal shift, SYPRO orange fluorescence; percent of sucrose octasulfate shift, DMSO zero;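 active means mean Tm shift, scaled 0 neutral to 100 positive control, at about 1.3% or above, every replicate too, limit read from the data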
UUG fidelity: alters start codon recognition fidelity in yeast. S. cerevisiae UUG-firefly luciferase reporter, luminescence/redox ratio. AID 602363. activity score, % at 18.7 µM. hit rate 0.13% among 350,000;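 active = replicate mean at a twofold rise or more, about +100% in these data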;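 note: firefly luciferase made from a UUG start codon reports start codon fidelity; reporter light over untreated wells divided by growth signal over untreated wells; some hits fall short of that in this replicate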
SIRT5 inh: sirtuin-5 (human) deacylase inhibition. actives 1.1% (n = 330,000). inhibition, % at 15 µM. AID 652115. Purified SirT5, succinyl-peptide AMC, trypsin-coupled fluorescence; in the data active means inhibition above about 15%
S100A4 inh HTS: inhibitors of human S100A4 binding to myosin IIA peptide; AID 652163; P26447; S100A4/TAMRA-MyoIIA peptide fluorescence polarization; actives 0.14% (n = 360,000); inhibition, % at 10.7 µM;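 active means mean inhibition of at least 70% across replicates, with every replicate also reaching that level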
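Test system: S100A4 monomer protein. Medium: HEPES buffer with Ca2+, pH 7.2. Reagent: fluorescent myosin IIA peptide, 5 nM. Compound dosing: single-point compound testing. Timing: 5 min between mix addition and reading. Benchmarks: DMSO neutral and TFP positive wells.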
Active calls of the source: *. The list is not random: actives were taken first. Their share in the collection is about 2.2%.

Screening CC(=O)Nc1ccc2nc(NC(=O)COc3ccccc3Cl)sc2c1 returned ERp5 block -4, PDI inh 4, FGF22 binding 43*, UUG fidelity -19, SIRT5 inh -5 and S100A4 inh HTS 0.
For COc1ccccc1S(=O)(=O)N[C@H]1CC[C@@H](CCNC(=O)C2CCC2)O[C@@H]1CO the results were ERp5 block -5, FGF22 binding 0, UUG fidelity -13, SIRT5 inh 12 and S100A4 inh HTS -4.
C[C@H](NC(=O)[C@@H]1[C@@H](CO)[C@@H]2Cn3c(cccc3=O)[C@H]1N2Cc1ccccc1)c1ccccc1 was read as ERp5 block -6, FGF22 binding 0, UUG fidelity 23, SIRT5 inh 19* and S100A4 inh HTS 8.
Screening O=C(NCC1CCCCC1)[C@H]1[C@H](CO)[C@H]2Cn3c(cccc3=O)[C@@H]1N2CCc1ccccc1 returned ERp5 block -1, FGF22 binding 0, SIRT5 inh 18* and S100A4 inh HTS 21.
Screening C[C@@H](NC(=O)[C@@H]1[C@@H](CO)[C@@H]2Cn3c(cccc3=O)[C@H]1N2Cc1ccccc1)c1ccccc1 returned ERp5 block 5, FGF22 binding 0, UUG fidelity 1, SIRT5 inh 7 and S100A4 inh HTS -6.
For O=C(NCC1CCCCC1)[C@@H]1[C@@H](CO)[C@@H]2Cn3c(cccc3=O)[C@H]1N2CCc1ccccc1 the results were ERp5 block 2, FGF22 binding 0, SIRT5 inh 3 and S100A4 inh HTS -6.
Screening O=C(C[C@@H]1C[C@@H]2c3cc(NC(=O)NC4CCCC4)ccc3O[C@@H]2[C@@H](CO)O1)NCc1ccccn1 returned ERp5 block 1, FGF22 binding 0, SIRT5 inh 1 and S100A4 inh HTS 0.
`CCCNC(=O)C[C@@H]1CC[C@@H]2[C@@H](COc3ccc(NC(=O)c4ccc(Cl)cc4)cc3C(=O)N2C)O1` gave ERp5 block 1, FGF22 binding 0, UUG fidelity -9, SIRT5 inh -4 and S100A4 inh HTS 7.
Screening N#C/C(=N\Nc1cc(Cl)cc(Cl)c1)c1nnc2n1CCCCC2 returned ERp5 block -6, PDI inh -1, FGF22 binding 43*, UUG fidelity -15, SIRT5 inh 0 and S100A4 inh HTS -5.
Screening N#C/C(=C(/O)CCl)c1nnc2n1CCCCC2 returned ERp5 block 10, PDI inh -5, FGF22 binding 0, UUG fidelity -13, SIRT5 inh -2 and S100A4 inh HTS 1.
For CO[C@@H](CN(C)Cc1cc(F)ccc1F)[C@@H](C)CN(C(=O)Nc1ccc(C(F)(F)F)cc1)[C@@H](C)CO the results were ERp5 block -3, FGF22 binding 0, SIRT5 inh 12 and S100A4 inh HTS -11.
Screening Cn1c(=S)[nH]c2sc3c(c2c1=O)CCC(C(C)(C)C)C3 (stereo unspecified) returned ERp5 block 3, PDI inh 10, FGF22 binding 0, SIRT5 inh 35* and S100A4 inh HTS -1.
`COCCn1c(=S)[nH]c2sc3c(c2c1=O)CCC(C)C3` (stereo unspecified) gave ERp5 block -1, PDI inh -6, FGF22 binding -1, UUG fidelity -9, SIRT5 inh -4 and S100A4 inh HTS 1.
`C[C@H]1CCCCO[C@H](CN(C)Cc2ccc(Cl)c(Cl)c2)[C@@H](C)CN([C@@H](C)CO)C(=O)c2cc(NC(=O)CCC(F)(F)F)ccc2O1` gave ERp5 block 1, FGF22 binding 0, UUG fidelity 13, SIRT5 inh 15* and S100A4 inh HTS -1.
C[C@@H]1CCCCO[C@H](CN(C)Cc2ccc(C(F)(F)F)cc2)[C@H](C)CN([C@@H](C)CO)C(=O)c2cc(NC(=O)CCC(F)(F)F)ccc2O1 was read as ERp5 block -2, FGF22 binding 0, UUG fidelity -3, SIRT5 inh 5 and S100A4 inh HTS -22.
For C[C@@H]1CN([C@H](C)CO)C(=O)c2cc(NC(=O)CCC(F)(F)F)ccc2O[C@@H](C)CCCCO[C@@H]1CN(C)Cc1ccc(C(F)(F)F)cc1 the results were ERp5 block -6, FGF22 binding 0, UUG fidelity 8, SIRT5 inh 21* and S100A4 inh HTS 1.
`C[C@@H]1CN([C@@H](C)CO)C(=O)c2cc(-c3ccccc3F)cnc2O[C@H]1CN(C)C(=O)c1ccccn1` gave ERp5 block 3, FGF22 binding 0, UUG fidelity 6, SIRT5 inh -1 and S100A4 inh HTS 17.
For O=C(O)CC(NC(=O)C12CC3CC(CC(C3)C1)C2)c1ccc(F)cc1 (stereo unspecified) the results were ERp5 block -1, PDI inh 11, FGF22 binding 0, UUG fidelity 17, SIRT5 inh -1 and S100A4 inh HTS 14.
O=C(O)CC(NC(=O)C12CC3CC(CC(C3)C1)C2)c1ccc2c(c1)OCO2 (stereo unspecified) was read as ERp5 block 1, PDI inh -5, FGF22 binding 43*, SIRT5 inh 0 and S100A4 inh HTS 2.
Screening CC(C(=O)Nc1ccccc1-c1ccccc1)N1CCN(Cc2ccccc2)CC1 (stereo unspecified) returned ERp5 block -1, PDI inh -3, FGF22 binding 43*, SIRT5 inh -1 and S100A4 inh HTS -4.

Three entries drawn at random from those above, as already listed:
Screening N#C/C(=C(/O)CCl)c1nnc2n1CCCCC2 returned ERp5 block 10, PDI inh -5, FGF22 binding 0, UUG fidelity -13, SIRT5 inh -2 and S100A4 inh HTS 1.
Screening O=C(NCC1CCCCC1)[C@H]1[C@H](CO)[C@H]2Cn3c(cccc3=O)[C@@H]1N2CCc1ccccc1 returned ERp5 block -1, FGF22 binding 0, SIRT5 inh 18* and S100A4 inh HTS 21.
O=C(O)CC(NC(=O)C12CC3CC(CC(C3)C1)C2)c1ccc2c(c1)OCO2 (stereo unspecified) was read as ERp5 block 1, PDI inh -5, FGF22 binding 43*, SIRT5 inh 0 and S100A4 inh HTS 2.

Going on with the list.
Screening O=C(Cc1ccccn1)N1CC(=O)N2[C@@H](CO)[C@H](c3ccc(C#CC4CCCC4)cc3)[C@@H]2C1 returned ERp5 block 4, SIRT5 inh -7 and S100A4 inh HTS -12.
Screening C[C@@H]1CN([C@@H](C)CO)S(=O)(=O)c2ccc(C#CCN(C)C)cc2O[C@H]1CN(C)Cc1cccnc1 returned ERp5 block -1, FGF22 binding 0, UUG fidelity -2, SIRT5 inh -5 and S100A4 inh HTS 7.
`CCN1C=C(C(C)=O)C(=O)CC1` gave ERp5 block 2, PDI inh -2, FGF22 binding 43*, UUG fidelity -14 and S100A4 inh HTS -2.
Screening C=CCN1C=C(C(C)=O)C(=O)CC1 returned ERp5 block 5, PDI inh 1, FGF22 binding 0, UUG fidelity -2, SIRT5 inh -1 and S100A4 inh HTS -1.
For CCOc1ccc(C=NNc2ccc(S(=O)(=O)Nc3ccccc3C(=O)O)cc2[N+](=O)[O-])cc1OC the results were PDI inh -8.
Screening O=C(O)c1ccccc1NS(=O)(=O)c1ccc(NNC(=S)Nc2ccc(OC(F)F)cc2)c([N+](=O)[O-])c1 returned ERp5 block -4, PDI inh -5, SIRT5 inh 24* and S100A4 inh HTS 1.
